Literature values as cited in CN105130966A, “炔基化合物及其使用方法和用途” (Add And Open Up Scientific Co, priority 2014, dated 2015).

Sequences of proteins named here, by UniProt entry; tags and fusion partners are left off. A change or cut given only in a name is not applied to a line headed by its entry.
UniProt O00329, whole entry, species assumed: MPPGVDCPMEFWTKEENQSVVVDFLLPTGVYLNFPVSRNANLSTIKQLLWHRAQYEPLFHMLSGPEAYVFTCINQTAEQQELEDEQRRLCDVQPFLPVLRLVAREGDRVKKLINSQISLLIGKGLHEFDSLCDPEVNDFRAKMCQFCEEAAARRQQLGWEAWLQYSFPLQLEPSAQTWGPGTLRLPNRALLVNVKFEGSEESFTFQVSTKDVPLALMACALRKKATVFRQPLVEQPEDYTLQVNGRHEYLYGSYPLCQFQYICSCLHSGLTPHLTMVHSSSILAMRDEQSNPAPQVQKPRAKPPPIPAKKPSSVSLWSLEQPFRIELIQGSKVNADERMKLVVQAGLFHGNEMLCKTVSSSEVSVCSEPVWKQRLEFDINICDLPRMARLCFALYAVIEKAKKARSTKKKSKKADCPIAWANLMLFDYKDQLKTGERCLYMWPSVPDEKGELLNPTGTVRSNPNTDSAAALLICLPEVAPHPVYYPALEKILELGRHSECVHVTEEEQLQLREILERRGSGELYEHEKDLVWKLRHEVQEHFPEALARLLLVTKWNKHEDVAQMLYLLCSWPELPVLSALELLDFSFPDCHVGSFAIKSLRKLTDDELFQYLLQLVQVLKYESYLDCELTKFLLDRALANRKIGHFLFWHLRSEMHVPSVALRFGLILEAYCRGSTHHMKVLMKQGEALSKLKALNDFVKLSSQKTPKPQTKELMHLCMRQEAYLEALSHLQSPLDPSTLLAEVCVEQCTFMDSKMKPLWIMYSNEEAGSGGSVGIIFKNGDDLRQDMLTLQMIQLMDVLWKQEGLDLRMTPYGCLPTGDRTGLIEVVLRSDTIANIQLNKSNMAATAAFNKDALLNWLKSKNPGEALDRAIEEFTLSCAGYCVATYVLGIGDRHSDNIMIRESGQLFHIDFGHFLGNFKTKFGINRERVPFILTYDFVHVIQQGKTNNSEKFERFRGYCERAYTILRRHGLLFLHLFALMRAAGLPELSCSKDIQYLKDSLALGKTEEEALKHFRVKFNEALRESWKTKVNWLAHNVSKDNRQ

Target: PI3Kδ (Homo sapiens, UniProt O00329)
Settings: Cell, 2006, 125, 733-747

SMILES: Cc1ccccc1-n1c(Cn2cnc3c(N)ncnc32)nc2cccc(C)c2c1=O [IC87114]
- inhibition of PI3Kδ: 高纳摩尔范围(三位数)
